Amino acid sequences for entries named in this document (tags omitted).
UniProt Q00955, whole entry: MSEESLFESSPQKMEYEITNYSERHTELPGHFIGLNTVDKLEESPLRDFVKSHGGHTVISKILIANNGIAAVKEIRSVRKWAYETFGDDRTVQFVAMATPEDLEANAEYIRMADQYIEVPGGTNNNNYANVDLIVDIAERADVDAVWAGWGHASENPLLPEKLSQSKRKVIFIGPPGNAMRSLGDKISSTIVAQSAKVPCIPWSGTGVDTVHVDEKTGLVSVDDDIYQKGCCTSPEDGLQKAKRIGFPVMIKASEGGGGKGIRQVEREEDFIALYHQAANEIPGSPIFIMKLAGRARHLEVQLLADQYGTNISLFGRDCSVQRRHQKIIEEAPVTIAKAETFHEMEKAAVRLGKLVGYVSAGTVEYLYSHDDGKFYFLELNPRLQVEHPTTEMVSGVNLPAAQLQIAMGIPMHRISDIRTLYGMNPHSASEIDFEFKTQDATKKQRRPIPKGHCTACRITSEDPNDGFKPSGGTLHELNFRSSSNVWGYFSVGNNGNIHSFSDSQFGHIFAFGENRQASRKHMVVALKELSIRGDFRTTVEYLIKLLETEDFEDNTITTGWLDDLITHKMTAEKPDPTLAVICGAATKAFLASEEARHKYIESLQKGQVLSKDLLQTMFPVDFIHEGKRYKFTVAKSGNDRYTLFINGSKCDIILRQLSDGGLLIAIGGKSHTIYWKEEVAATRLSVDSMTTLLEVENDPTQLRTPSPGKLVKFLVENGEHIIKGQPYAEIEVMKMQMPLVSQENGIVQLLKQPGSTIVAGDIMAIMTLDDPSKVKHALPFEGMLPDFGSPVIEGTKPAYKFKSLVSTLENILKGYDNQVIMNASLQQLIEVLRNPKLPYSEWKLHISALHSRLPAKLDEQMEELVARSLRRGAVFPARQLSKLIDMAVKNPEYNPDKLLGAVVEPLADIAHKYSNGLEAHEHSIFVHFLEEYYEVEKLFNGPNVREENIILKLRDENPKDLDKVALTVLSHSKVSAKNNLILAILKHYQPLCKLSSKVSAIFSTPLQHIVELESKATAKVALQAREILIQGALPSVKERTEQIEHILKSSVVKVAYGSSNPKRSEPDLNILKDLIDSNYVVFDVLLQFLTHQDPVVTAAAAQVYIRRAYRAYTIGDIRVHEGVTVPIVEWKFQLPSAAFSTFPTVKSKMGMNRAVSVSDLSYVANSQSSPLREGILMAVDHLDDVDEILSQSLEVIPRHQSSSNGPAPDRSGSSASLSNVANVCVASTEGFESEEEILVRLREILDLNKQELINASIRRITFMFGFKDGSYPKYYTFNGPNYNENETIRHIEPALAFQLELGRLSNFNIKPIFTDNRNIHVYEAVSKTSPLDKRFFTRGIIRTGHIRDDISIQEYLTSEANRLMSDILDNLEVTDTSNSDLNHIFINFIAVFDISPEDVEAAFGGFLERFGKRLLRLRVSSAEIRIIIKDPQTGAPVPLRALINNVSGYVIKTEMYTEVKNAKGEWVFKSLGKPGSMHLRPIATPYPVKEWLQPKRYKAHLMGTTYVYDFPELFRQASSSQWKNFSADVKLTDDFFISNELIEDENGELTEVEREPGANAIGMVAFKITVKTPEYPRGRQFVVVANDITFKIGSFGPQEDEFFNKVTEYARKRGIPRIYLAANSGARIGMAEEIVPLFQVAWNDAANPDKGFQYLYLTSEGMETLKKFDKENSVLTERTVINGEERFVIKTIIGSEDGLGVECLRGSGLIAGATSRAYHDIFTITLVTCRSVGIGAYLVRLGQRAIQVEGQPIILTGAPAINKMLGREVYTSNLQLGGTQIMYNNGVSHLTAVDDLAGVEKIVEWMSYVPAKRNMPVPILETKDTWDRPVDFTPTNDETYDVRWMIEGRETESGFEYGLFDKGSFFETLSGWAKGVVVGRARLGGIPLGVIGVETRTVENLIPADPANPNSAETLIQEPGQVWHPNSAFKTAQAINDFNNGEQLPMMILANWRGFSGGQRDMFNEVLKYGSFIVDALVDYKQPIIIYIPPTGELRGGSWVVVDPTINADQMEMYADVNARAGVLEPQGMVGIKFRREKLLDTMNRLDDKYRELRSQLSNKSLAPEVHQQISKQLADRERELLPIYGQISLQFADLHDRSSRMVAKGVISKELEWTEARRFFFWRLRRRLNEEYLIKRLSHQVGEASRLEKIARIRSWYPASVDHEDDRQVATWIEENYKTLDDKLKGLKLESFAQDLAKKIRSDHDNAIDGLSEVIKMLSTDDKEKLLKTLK

For this assay, the target named is Fungal ACC2 (UniProt Q00955). Conditions: read-out: Fungal ACC2 (IC50, in vitro ACC2 inhibition).
Regarding `COc1ccc(F)cc1[C@H](Cn1c(=O)n(C2CCN(C(C)C)C2=O)c(=O)c2c(C)c(-n3nccn3)sc21)OCCO` (stereo partly drawn) [Compound I-8, 1-((R)-2-(5-fluoro-2-methoxyphenyl)-2-(2-hydroxyethoxy)ethyl)-3-(1-isopropyl-2-oxopyrrolidin-3-yl)-5-methyl-6-(2H-1,2,3-triazol-2-yl)thieno[2,3-d]pyrimidine-2,4(1H,3H)-dione], the IC50 is 0.7 to 2 nM.
To `COc1ccc(F)cc1[C@H](Cn1c(=O)n(C2CCNC2=O)c(=O)c2c(C)c(-n3nccn3)sc21)OC1CCOCC1` (stereo partly drawn) [Compound I-9, 1-((R)-2-(5-fluoro-2-methoxyphenyl)-2-((tetrahydro-2H-pyran-4-yl)oxy)ethyl)-5-methyl-3-(2-oxopyrrolidin-3-yl)-6-(22H-1,2,3-triazol-2-yl)thieno[2,3-d]pyrimidine-2,4(1H,3H)-dione] belongs 0.7 to 2 nM; to `CCN1CCC(n2c(=O)c3c(C)c(-n4nccn4)sc3n(C[C@H](OC3CCOCC3)c3cc(F)ccc3OC)c2=O)C1=O` (stereo partly drawn) [Compound I-11, 3-(1-ethyl-2-oxopyrrolidin-3-yl)-1-((R)-2-(5-fluoro-2-methoxyphenyl)-2-((tetrahydro-2H-pyran-4-yl)oxy)ethyl)-5-methyl-6-(2H-1,2,3-triazol-2-yl)thieno[2,3-d]pyrimidine-2,4(1H,3H)-dione], 2 to 10 nM; to `COc1ccc(F)cc1[C@H](Cn1c(=O)n(C2CCCN(C(C)C)C2=O)c(=O)c2c(C)c(-n3nccn3)sc21)OCCO` (stereo partly drawn) [Compound I-20, 1-((R)-2-(5-fluoro-2-methoxyphenyl)-2-(2-hydroxy-ethoxy)ethyl)-3-(1-isopropyl-2-oxopiperidin-3-yl)-5-methyl-6-(2H-1,2,3-triazol-2-yl)thieno[2,3-d]pyrimidine-2,4(1H,3H)-dione], 0.7 to 2 nM.
For the molecule `COc1ccc(F)cc1[C@H](Cn1c(=O)n(C2CCCNC2=O)c(=O)c2c(C)c(-n3nccn3)sc21)OC1CCOCC1` (stereo partly drawn) [Compound I-21, 1-((R)-2-(5-fluoro-2-methoxyphenyl)-2-((tetrahydro-2H-pyran-4-yl)oxy)ethyl)-5-methyl-3-(2-oxopiperidin-3-yl)-6-(2H-1,2,3-triazol-2-yl)thieno[2,3-d]pyrimidine-2,4(1H,3H)-dione], the IC50 lay within 0.7 to 2 nM.
On to `COc1ccc(F)cc1[C@H](Cn1c(=O)n(C2CCCN(C(C)C)C2=O)c(=O)c2c(C)c(-n3nccn3)sc21)OC1CCOCC1` (stereo partly drawn) [Compound I-24], for which the IC50 lay in the range of 0.7 to 2 nM.
As for `COc1ccc(F)cc1[C@H](Cn1c(=O)n([C@H]2CCNC2=O)c(=O)c2c(C)c(-n3nccn3)sc21)OC1CCOCC1` [Compound I-33, 1-((R)-2-(5-fluoro-2-methoxyphenyl)-2-((tetrahydro-2H-pyran-4-yl)oxy)ethyl)-5-methyl-3-((S)-2-oxopyrrolidin-3-yl)-6-(2H-1,2,3-triazol-2-yl)thieno[2,3-d]pyrimidine-2,4(1H,3H)-dione], the figure is 0.7 to 2 nM; as for `COc1ccc(F)cc1[C@H](Cn1c(=O)n([C@@H]2CCNC2=O)c(=O)c2c(C)c(-n3nccn3)sc21)OC1CCOCC1` [Compound I-34, 1-((R)-2-(5-fluoro-2-methoxyphenyl)-2-((tetrahydro-2H-pyran-4-yl)oxy)ethyl)-5-methyl-3-((R)-2-oxopyrrolidin-3-yl)-6-(2H-1,2,3-triazol-2-yl)thieno[2,3-d]pyrimidine-2,4(1H,3H)-dione], 0.7 to 2 nM.
To `COc1ccccc1[C@H](Cn1c(=O)n(C2CCCN(C)C2=O)c(=O)c2c(C)c(-c3ncco3)sc21)OC1CCOCC1` (stereo partly drawn) [Compound I-50, 1-((R)-2-(2-methoxyphenyl)-2-((tetrahydro-2H-pyran-4-yl)oxy)ethyl)-5-methyl-3-(1-methyl-2-oxopiperidin-3-yl)-6-(oxazol-2-yl)thieno[2,3-d]pyrimidine-2,4(1H,3H)-dione] belongs 2 to 10 nM; to `COc1ccc(F)cc1[C@H](Cn1c(=O)n(C2CCCN(C)C2=O)c(=O)c2c(C)c(-c3ncco3)sc21)OC1CCOCC1` (stereo partly drawn) [Compound I-52, 1-((R)-2-(5-fluoro-2-methoxyphenyl)-2-((tetrahydro-2H-pyran-4-yl)oxy)ethyl)-5-methyl-3-(I-methyl-2-oxopiperidin-3-yl)-6-(oxazol-2-yl)thieno[2,3-d]pyrimidine-2,4(1H,3H)-dione], 0.7 to 2 nM; to `COc1ccccc1[C@H](Cn1c(=O)n(C2CCN(C)C2=O)c(=O)c2c(C)c(-c3ncco3)sc21)OC1CCOCC1` (stereo partly drawn) [Compound I-57, 1-((R)-2-(2-methoxyphenyl)-2-((tetrahydro-2H-pyran-4-yl)oxy)ethyl)-5-methyl-3-(1-methyl-2-oxopyrrolidin-3-yl)-6-(oxazol-2-yl)thieno[2,3-d]pyrimidine-2,4(1H,3H)-dione], 0.7 to 2 nM.
As for `COc1ccc(F)cc1[C@H](Cn1c(=O)n(C2CCNC2=O)c(=O)c2c(C)c(-c3ncco3)sc21)OC1CCOCC1` (stereo partly drawn) [Compound I-58, 1-((R)-2-(5-fluoro-2-methoxyphenyl)-2-((tetrahydro-2H-pyran-4-yl)oxy)ethyl)-5-methyl-6-(oxazol-2-yl)-3-(2-oxopyrrolidin-3-yl)thieno[2,3-d]pyrimidine-2,4(1H,3H)-dione], the figure is 2 to 10 nM; as for `COc1ccc(F)cc1[C@H](Cn1c(=O)n([C@H]2CCCN(C)C2=O)c(=O)c2c(C)c(-c3ncco3)sc21)OCCO` [Compound I-63, 1-((R)-2-(5-fluoro-2-methoxyphenyl)-2-(2-hydroxy-ethoxy)ethyl)-5-methyl-3-((S)-1-methyl-2-oxopiperidin-3-yl)-6-(oxazol-2-yl)thieno[2,3-d]pyrimidine-2,4(1H,3H)-dione], 2 to 10 nM; as for `COc1ccc(F)cc1[C@H](Cn1c(=O)n([C@@H]2CCCNC2=O)c(=O)c2c(C)c(-c3ncco3)sc21)OCCO` [Compound I-64, 1-((R)-2-(5-fluoro-2-methoxyphenyl)-2-(2-hydroxy-ethoxy)ethyl)-5-methyl-6-(oxazol-2-yl)-3-((R)-2-oxopiperidin-3-yl)thieno[2,3-d]pyrimidine-2,4(1H,3H)-dione], 2 to 10 nM.
With `COc1ccc(F)cc1[C@H](Cn1c(=O)n([C@@H]2CCCN(C(C)C)C2=O)c(=O)c2c(C)c(-n3nccn3)sc21)OC1CCOCC1` [Compound I-77, 1-((R)-2-(5-fluoro-2-methoxyphenyl)-2-((tetrahydro-2H-pyran-4-yl)oxy)ethyl)-3-((R)-1-isopropyl-2-oxopiperidin-3-yl)-5-methyl-6-(2H-1,2,3-triazol-2-yl)thieno[2,3-d]pyrimidine-2,4(1H,3H)-dione], the IC50 was in the range of 0.7 to 2 nM.
As for `COc1ccc(F)cc1[C@H](Cn1c(=O)n([C@]2(C)CCC(=O)NC2)c(=O)c2c(C)c(-n3nccn3)sc21)OCCO` [Compound I-133, 1-((R)-2-(5-fluoro-2-methoxyphenyl)-2-(2-hydroxy-ethoxy)ethyl)-5-methyl-3-((R)-3-methyl-6-oxopiperidin-3-yl)-6-(2H-1,2,3-triazol-2-yl)thieno[2,3-d]pyrimidine-2,4(1H,3H)-dione], the figure is 0.7 to 2 nM; as for `COc1ccc(F)cc1[C@H](Cn1c(=O)n([C@]2(C)CCNC2=O)c(=O)c2c(C)c(-n3nccn3)sc21)OCCO` [Compound I-144, 1-((R)-2-(5-fluoro-2-methoxyphenyl)-2-(2-hydroxyethoxy)ethyl)-5-methyl-3-((R)-3-methyl-2-oxopyrrolidin-3-yl)-6-(2H-1,2,3-triazol-2-yl)thieno[2,3-d]pyrimidine-2,4(1H,3H)-dione], above 1000 nM; as for `COc1ccc(F)cc1[C@H](Cn1c(=O)n([C@@]2(C)CCNC2=O)c(=O)c2c(C)c(-n3nccn3)sc21)OCCO` [Compound I-145, 1-((R)-2-(5-fluoro-2-methoxyphenyl)-2-(2-hydroxy-ethoxy)ethyl)-5-methyl-3-((S)-3-methyl-2-oxopyrrolidin-3-yl)-6-(2H-1,2,3-triazol-2-yl)thieno[2,3-d]pyrimidine-2,4(1H,3H)-dione], above 1000 nM.
Take `COc1ccc(F)cc1[C@H](Cn1c(=O)n([C@]2(C)CCN(C)C2=O)c(=O)c2c(C)c(-n3nccn3)sc21)OCCO` [Compound I-147, 3-((R)-1,3-dimethyl-2-oxopyrrolidin-3-yl)-1-((R)-2-(5-fluoro-2-methoxyphenyl)-2-(2-hydroxyethoxy)ethyl)-5-methyl-6-(2H-1,2,3-triazol-2-yl)thieno[2,3-d]pyrimidine-2,4(1H,3H)-dione]: the IC50 was above 1000 nM.
To `COc1ccc(F)cc1[C@H](Cn1c(=O)n([C@@]2(C)CCN(C)C2=O)c(=O)c2c(C)c(-n3nccn3)sc21)OCCO` [Compound I-149, 3-((S)-1,3-dimethyl-2-oxopyrrolidin-3-yl)-1-((R)-2-(5-fluoro-2-methoxyphenyl)-2-(2-hydroxyethoxy)ethyl)-5-methyl-6-(2H-1,2,3-triazol-2-yl)thieno[2,3-d]pyrimidine-2,4(1H,3H)-dione] belongs above 1000 nM; to `CCN1CC[C@H](n2c(=O)c3c(C)c(-n4nccn4)sc3n(C[C@H](OC3CCOCC3)c3cc(F)ccc3OC)c2=O)C1=O` [Compound I-150, 3-((S)-1-ethyl-2-oxopyrrolidin-3-yl)-1-((R)-2-(5-fluoro-2-methoxyphenyl)-2-((tetrahydro-2H-pyran-4-yl)oxy)ethyl)-5-methyl-6-(2H-1,2,3-triazol-2-yl)thieno[2,3-d]pyrimidine-2,4(1H,3H)-dione], 0.7 to 2 nM.

A word on the IC50: it is the concentration that gives 50% inhibition.

Values taken from patent US20190330224A1, “ACC INHIBITORS AND USES THEREOF” (Gilead Apollo, LLC, priority 2015, published 2019).
